{
  "source": "PubChem BioAssay AID1875",
  "about": "(Broad Institute, 2009)",
  "note": "Only a part is listed here, and it is no random draw. Active and inactive are the calls of the source.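 Rule for the calls: active = lowest replicate activity score at least 50, where 100 means six control SD above control mean; inconclusive = lowest score under 50 but half or more replicates reach 50; inactive = the rest.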",
  "data": [
    {"assay": "polyadenylation inhibitors in yeast reporter cells, primary screen, luminescence, S. cerevisiae (AID 1875);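 note: yeast exposed to compound for 9 h at 30 °C; higher score means more reporter readthrough which indicates perturbed polyadenylation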", "details": "S. cerevisiae SKY197-pL101 polyadenylation reporter, beta-gal luminescence; at 12 µM; hits give high values; efflux-impaired pdr1/pdr3 knockout yeast; score 100 = 6 SD above DMSO", "values": [
      {"smiles": "CCC(=O)N1C2C3N(C(=O)CC)C1C1N(C(=O)CC)C(C(N1C(=O)CC)N3C(=O)CC)N2C(=O)CC", "activity score": "inactive: 1.47%"}
    ]}
  ]
}
